# scFv variants of Ab-91 (heavy chain) against a SARS-CoV-2 spike peptide

Values reported by Engelhart et al. 2022, doi:10.1038/s41597-022-01779-4 (FLAb copy).

Binding partner: SARS-CoV-2 spike HR2 peptide, sequence PDVDLGDISGINAS.

Ab-91 is the parent antibody, in scFv form: VL, then a 15-residue (Gly4Ser)3 linker, then VH. The light chain is unchanged in all variants.
VL: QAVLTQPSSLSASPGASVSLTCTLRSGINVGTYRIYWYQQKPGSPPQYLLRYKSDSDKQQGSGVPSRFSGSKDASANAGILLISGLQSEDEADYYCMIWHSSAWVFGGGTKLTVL
VH: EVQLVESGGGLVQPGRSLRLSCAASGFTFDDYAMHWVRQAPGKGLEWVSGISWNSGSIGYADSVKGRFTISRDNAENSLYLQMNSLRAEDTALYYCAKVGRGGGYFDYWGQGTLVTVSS

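The library (AAYL51) carries one to three amino acid substitutions per variant, with no insertions or deletions. AlphaSeq pools MATa yeast showing the antibodies with MATalpha yeast showing the peptide. Pairs that bind mate more often; barcode pairs of the diploids are counted by sequencing. Read counts were normalised to the haploid input and turned into Kd by a linear fit to BCL2-family pairs of known affinity, for each replicate. Mating was done three times.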

Changes read parent residue, position, new residue, counted from the first residue of the VH shown.
Kd is apparent (estimated from mating counts) and averaged on the log scale over replicates with a signal. Smaller is tighter.
"not detected" means that the variant was in the library but no mating with the target was seen in any replicate; the authors take this as a sign of poor binding, and no number exists.
Background: pairings of library AAYL51 with three empty control strains gave a value in 21% of cases (median 34 µM, 5th percentile 1.8 µM). Values in that range, when seen in few replicates, are hard to tell from nonspecific mating. Also given: how often the same scFv was detected with the empty control strains.

| # | Kd (apparent) | replicates with signal | control signals | changes |
|---|---|---|---|---|
| 1 | 170 µM | 1 of 3 | 1 of 9 | D31N+W53H |
| 2 | 3.2 µM | 1 of 3 | 0 of 9 | Y32W+N54Y+F106S |
| 3 | 470 µM | 2 of 3 | 5 of 9 | F29D+S57K+K65A |
| 4 | 55 µM | 2 of 3 | 7 of 9 | T28D+W53S+G59Y |
| 5 | 87 µM | 2 of 3 | 6 of 9 | S52C+Y60P |
| 6 | not detected | 0 of 3 | 0 of 9 | I51R+W53K+A61R |
| 7 | not detected | 0 of 3 | 1 of 9 | G26H+D31E+G102H |
| 8 | 60 µM | 3 of 3 | 3 of 9 | S57G+S63Y |
| 9 | not detected | 0 of 3 | 0 of 9 | F27K+S52W+Y108R |
| 10 | 33 µM | 3 of 3 | 5 of 9 | W53Q+G102S |
| 11 | 8.1 µM | 3 of 3 | 2 of 9 | I58M+Y60L+R101F |
| 12 | 29 µM | 1 of 3 | 4 of 9 | D30M+G50A+G59R |
| 13 | not detected | 0 of 3 | 0 of 9 | G26E+H35S+W53V |
| 14 | 5.9 µM | 1 of 3 | 2 of 9 | S55I+R101V+G104Q |
| 15 | 810 nM | 1 of 3 | 1 of 9 | F27T+Y60H+F106V |
| 16 | 37 µM | 2 of 3 | 0 of 9 | G59A+S63R+G103L |
| 17 | not detected | 0 of 3 | 1 of 9 | H35L+S55K+Y108Q |
| 18 | 27 nM | 3 of 3 | 2 of 9 | K65H+G100F |
| 19 | not detected | 0 of 3 | 0 of 9 | I51M+V99Q+Y108E |
| 20 | 25 nM | 3 of 3 | 0 of 9 | T28W+D31N+S63C |
| 21 | 15 µM | 1 of 3 | 1 of 9 | M34K+G56K+G103Q |
| 22 | 78 µM | 2 of 3 | 4 of 9 | F29T+D62C+V99M |
| 23 | not detected | 0 of 3 | 0 of 9 | W53I+G59K+D107V |
| 24 | not detected | 0 of 3 | 0 of 9 | H35W+I51G+S52Y |
| 25 | not detected | 0 of 3 | 0 of 9 | F29Y+A61W+G103M |
| 26 | 10 µM | 2 of 3 | 1 of 9 | N54V+D62Q+G103D |
| 27 | 140 nM | 3 of 3 | 7 of 9 | S55A+G56C+G100S |
| 28 | 18 nM | 3 of 3 | 5 of 9 | I58S+R101C+G103T |
| 29 | 510 nM | 1 of 3 | 1 of 9 | M34E+D107Q+Y108R |
| 30 | 930 µM | 1 of 3 | 3 of 9 | F29G+I51C+Y105F |
| 31 | 760 nM | 1 of 3 | 0 of 9 | Y60E+A61K+K65T |
| 32 | 4.7 µM | 1 of 3 | 2 of 9 | H35M+G103F |
| 33 | not detected | 0 of 3 | 2 of 9 | Y60L+D62Y+S63T |
| 34 | 360 µM | 2 of 3 | 5 of 9 | G26F+W53L+V64A |
| 35 | 16 µM | 1 of 3 | 1 of 9 | D31A+I58E+Y105D |
| 36 | not detected | 0 of 3 | 1 of 9 | G50A+I58M |
| 37 | 1.2 µM | 3 of 3 | 4 of 9 | T28L+F29T+D30K |
| 38 | not detected | 0 of 3 | 0 of 9 | A61C+R101S+G103A |
| 39 | not detected | 0 of 3 | 1 of 9 | G50H+S63I+G100M |
| 40 | not detected | 0 of 3 | 0 of 9 | G50A+G59L+V64A |
| 41 | 12 µM | 1 of 3 | 5 of 9 | I51V+S52I+S55R |
| 42 | 10 nM | 3 of 3 | 3 of 9 | T28G+D30Q+S63Y |
| 43 | 6.2 µM | 1 of 3 | 1 of 9 | I58V+K65A+G103F |
| 44 | 7.9 nM | 3 of 3 | 0 of 9 | Y32H+G100I+F106D |
| 45 | 36 µM | 3 of 3 | 3 of 9 | F27R+D31H+G102R |
| 46 | 44 nM | 3 of 3 | 1 of 9 | V99F+G100V+Y105L |
| 47 | 29 µM | 1 of 3 | 2 of 9 | Y32G+G50W+A61W |
| 48 | 13 µM | 1 of 3 | 2 of 9 | G56P+Y60E+K65G |
| 49 | 580 nM | 3 of 3 | 4 of 9 | Y105R+F106H |
| 50 | 23 µM | 1 of 3 | 2 of 9 | F27M+F29G |

Extract of 4 entries:

| changes | Kd (apparent) | replicates with signal | control signals |
|---|---|---|---|
| S55I+R101V+G104Q | 5.9 µM | 1 of 3 | 2 of 9 |
| N54V+D62Q+G103D | 10 µM | 2 of 3 | 1 of 9 |
| S55A+G56C+G100S | 140 nM | 3 of 3 | 7 of 9 |
| T28L+F29T+D30K | 1.2 µM | 3 of 3 | 4 of 9 |